# Values of other authors in patent publication US20190111103A1, “NOVEL PEPTIDE OR SALT THEREOF, COMPOSITION FOR ENHANCING PROLIFERATION OF FIBROBLAST CELLS AND COMPOSITION FOR ENHANCING ELASTIN PRODUCTION IN FIBROBLAST CELLS AND CHONDROCYTES CONTAINING THE SAME” (Hayashikane Sangyo Co., Ltd., priority 2017, published 2019).
# Protein sequences, listed by entry. Tags and fused reporters are not part of them. Residues count along the entry.
# UniProt P12821, 30-1306: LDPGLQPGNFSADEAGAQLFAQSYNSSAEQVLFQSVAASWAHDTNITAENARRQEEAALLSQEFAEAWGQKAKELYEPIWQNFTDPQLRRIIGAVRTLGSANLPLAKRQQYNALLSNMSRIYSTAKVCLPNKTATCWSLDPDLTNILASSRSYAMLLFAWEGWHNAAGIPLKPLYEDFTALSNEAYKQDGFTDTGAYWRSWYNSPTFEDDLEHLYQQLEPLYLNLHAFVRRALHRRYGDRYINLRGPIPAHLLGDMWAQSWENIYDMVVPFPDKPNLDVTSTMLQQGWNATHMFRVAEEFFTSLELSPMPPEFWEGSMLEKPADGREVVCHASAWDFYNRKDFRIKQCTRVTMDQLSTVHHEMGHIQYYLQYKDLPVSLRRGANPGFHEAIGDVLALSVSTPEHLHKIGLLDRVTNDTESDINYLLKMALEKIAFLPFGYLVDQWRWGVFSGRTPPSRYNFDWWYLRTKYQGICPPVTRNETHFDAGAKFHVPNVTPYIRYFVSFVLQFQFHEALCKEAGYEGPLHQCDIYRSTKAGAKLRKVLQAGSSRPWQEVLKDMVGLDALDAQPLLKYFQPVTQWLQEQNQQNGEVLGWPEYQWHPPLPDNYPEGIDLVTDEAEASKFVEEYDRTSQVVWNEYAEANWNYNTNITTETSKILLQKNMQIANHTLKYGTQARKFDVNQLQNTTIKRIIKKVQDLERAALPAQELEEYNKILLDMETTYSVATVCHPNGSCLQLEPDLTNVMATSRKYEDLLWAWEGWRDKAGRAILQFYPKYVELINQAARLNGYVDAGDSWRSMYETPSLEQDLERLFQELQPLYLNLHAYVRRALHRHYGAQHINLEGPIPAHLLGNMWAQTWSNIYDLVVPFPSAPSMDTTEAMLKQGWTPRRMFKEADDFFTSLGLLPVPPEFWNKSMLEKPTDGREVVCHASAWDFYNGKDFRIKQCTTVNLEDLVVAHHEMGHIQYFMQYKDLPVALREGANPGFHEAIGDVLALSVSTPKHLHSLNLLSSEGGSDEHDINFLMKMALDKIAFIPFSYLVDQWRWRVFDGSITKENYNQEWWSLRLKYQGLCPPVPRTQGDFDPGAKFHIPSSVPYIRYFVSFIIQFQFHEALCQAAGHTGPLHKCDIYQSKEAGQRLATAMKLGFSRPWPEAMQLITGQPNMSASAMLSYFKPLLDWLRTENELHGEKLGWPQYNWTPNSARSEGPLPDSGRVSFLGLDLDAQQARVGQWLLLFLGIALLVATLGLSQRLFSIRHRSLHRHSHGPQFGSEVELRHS
# Target: angiotensin conversion enzyme (Homo sapiens, UniProt P12821)
# Settings: already known, JP Kokai 2007-182424; cited from earlier work
substance,measurement,value
Val-Pro,effect on angiotensin conversion enzyme,inhibitory effect
